According to PubChem BioAssay AID998 (National Center for Advancing Translational Sciences (NCATS), 2007):
The entries are a selection whose mix differs from that of the whole data set. Activity calls are given as the source filed them. Calls come from the whole dose curve; as a rule, active = well fitted curve in the direction sought with a large enough effect; inactive = no such curve, though single readings can be large or run the other way.

Amino acid sequences for entries named in this document (tags omitted). A change or cut given only in a name is not applied to a line headed by its entry.
UniProt P06280: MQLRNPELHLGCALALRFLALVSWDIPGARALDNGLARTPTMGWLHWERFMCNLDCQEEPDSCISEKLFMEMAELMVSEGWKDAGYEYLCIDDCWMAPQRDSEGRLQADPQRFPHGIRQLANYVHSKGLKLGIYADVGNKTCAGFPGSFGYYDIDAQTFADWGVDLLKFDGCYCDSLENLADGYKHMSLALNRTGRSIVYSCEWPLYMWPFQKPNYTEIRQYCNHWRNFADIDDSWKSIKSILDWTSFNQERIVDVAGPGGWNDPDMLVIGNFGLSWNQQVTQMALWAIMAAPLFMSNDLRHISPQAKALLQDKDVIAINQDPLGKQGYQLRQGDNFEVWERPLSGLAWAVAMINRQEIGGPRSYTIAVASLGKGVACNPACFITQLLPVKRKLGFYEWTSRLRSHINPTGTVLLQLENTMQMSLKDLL

Biological target: Alpha-galactosidase A (Homo sapiens) (UniProt P06280)
Assay: Counterscreen for Glucocerebrosidase Inhibitors: qHTS Assay for Coffee Bean alpha-Galactosidase at pH 5.9;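 note: plate controls were uninhibited enzyme for no effect and no-enzyme basal signal for full effect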
Conditions: coffee bean alpha-galactosidase enzyme assay; at 76.9 µM (top of the series)
Summary of the method: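 Compounds were titrated from 0.7 nM to 77 uM against green coffee bean alpha-galactosidase (2 nM) using 80 uM fluorogenic 4-methylumbelliferyl substrate. After 20 min at room temperature, reactions were stopped at pH 10 and read by fluorescence.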

SMILES | activity, negative = inhibition
CN(C(=O)Cc1ccccc1)[C@@H]1CC[C@@]2(CCCO2)C[C@H]1N1CCCC1 | inactive: -1.73%
CN(CCCl)Cc1cc(Cl)c(NC2=NCCN2)c(Cl)c1 | inactive: -1.62%
CN(C(=O)Cc1ccc(Cl)c(Cl)c1)[C@@H]1CC[C@@]2(CCCO2)C[C@H]1N1CCCC1 | inactive: -1.08%
CN(C(=O)Cc1ccc(Cl)c(Cl)c1)[C@@H]1CCCC[C@H]1N1CCCC1 | inactive: -2.64% [middle of 4 runs]
